Target: Neprilysin/Angiotensin-converting enzyme (Homo sapiens, UniProt P08473+P12821)
Test: Enzyme Inhibition Assay: The assays were performed in 384-well white opaque plates at 37° C. using the fluorogenic peptide substrates at a concentration of 10 μM in Assay Buffer (NEP: 50 mM HEPES, pH 7.5, 100 mM NaCl, 0.01% polyethylene glycol sorbitan monolaurate (Tween-20), 10 μM ZnSO4; ACE: 50 mM HEPES, pH 7.5, 100 mM NaCl, 0.01% Tween-20, 1 μM ZnSO4). The respective enzymes were used at …
Format: protein-complex assay

Ki: 0.631 nM
Structure (SMILES): O=C(O)C(=O)N[C@H](Cc1ccc(-c2ccccc2)cc1)C[C@@H](CO)C(=O)O

Reference: ChEMBL document CHEMBL5729531, “Neprilysin inhibitors” (2023)
